Laboratory results reported in ChEMBL document CHEMBL3822434 (Bioorg Med Chem, 2016).

Target: T1, Mitogen-activated protein kinase kinase kinase 7 (Homo sapiens, UniProt O43318)
T1 sequence (O43318 whole entry): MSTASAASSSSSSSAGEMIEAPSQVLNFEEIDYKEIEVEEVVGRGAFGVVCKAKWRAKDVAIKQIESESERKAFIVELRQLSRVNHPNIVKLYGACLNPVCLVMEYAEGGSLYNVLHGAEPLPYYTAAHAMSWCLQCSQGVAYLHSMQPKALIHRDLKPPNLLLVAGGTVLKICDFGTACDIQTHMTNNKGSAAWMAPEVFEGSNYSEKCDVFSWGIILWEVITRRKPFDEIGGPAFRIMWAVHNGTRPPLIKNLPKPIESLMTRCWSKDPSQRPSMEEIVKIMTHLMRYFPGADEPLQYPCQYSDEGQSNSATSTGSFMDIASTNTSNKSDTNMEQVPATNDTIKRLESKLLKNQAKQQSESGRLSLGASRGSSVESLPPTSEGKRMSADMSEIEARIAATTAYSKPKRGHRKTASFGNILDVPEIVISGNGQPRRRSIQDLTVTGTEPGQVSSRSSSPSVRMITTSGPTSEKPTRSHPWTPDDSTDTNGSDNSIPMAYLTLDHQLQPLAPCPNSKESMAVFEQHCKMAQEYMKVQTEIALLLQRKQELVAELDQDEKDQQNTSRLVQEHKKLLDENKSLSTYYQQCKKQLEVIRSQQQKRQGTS
Assay: Inhibition of full length TAK1 (unknown origin) fused with TAB1 using biotin-MKK6 as substrate by AlphaScreen assay

COc1cc(O)c2c(c1)/C=C/C[C@H](O)[C@H](O)C(=O)/C=C\C[C@H](C)OC2=O
IC50: 9 nM
